Experimental data published in ChEMBL document CHEMBL1155782 (Bioorg Med Chem, 2008).

Sequences of proteins named here, by UniProt entry; tags and fusion partners are left off. A change or cut given only in a name is not applied to a line headed by its entry.
UniProt P22748: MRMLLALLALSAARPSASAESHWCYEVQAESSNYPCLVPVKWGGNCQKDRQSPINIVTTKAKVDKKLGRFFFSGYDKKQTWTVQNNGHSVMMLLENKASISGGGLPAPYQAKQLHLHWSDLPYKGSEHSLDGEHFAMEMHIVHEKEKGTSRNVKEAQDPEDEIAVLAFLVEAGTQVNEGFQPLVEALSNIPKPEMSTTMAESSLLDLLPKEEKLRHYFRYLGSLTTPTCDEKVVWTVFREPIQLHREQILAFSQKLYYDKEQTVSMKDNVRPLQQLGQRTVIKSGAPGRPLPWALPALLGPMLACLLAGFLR
UniProt Q9Y2D0: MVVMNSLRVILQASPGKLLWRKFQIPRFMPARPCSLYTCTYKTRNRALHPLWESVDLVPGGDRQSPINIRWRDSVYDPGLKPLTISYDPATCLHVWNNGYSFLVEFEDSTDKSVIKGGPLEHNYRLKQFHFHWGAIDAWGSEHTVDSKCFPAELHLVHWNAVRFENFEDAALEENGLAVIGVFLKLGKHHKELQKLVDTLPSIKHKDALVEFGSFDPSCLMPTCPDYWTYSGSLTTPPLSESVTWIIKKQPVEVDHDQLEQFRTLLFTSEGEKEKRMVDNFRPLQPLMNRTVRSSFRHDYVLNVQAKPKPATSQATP

Assays:
[1] = molecular target: Carbonic anhydrase 4 (Homo sapiens, UniProt P22748)
[2] = molecular target: Carbonic anhydrase 5B, mitochondrial (Homo sapiens, UniProt Q9Y2D0)

Row | SMILES | Ki [1] [µM] | Ki [2] [µM]
1 | Oc1ccccc1O [CATECHOL] | 10.9 | 
2 | O=C(O)c1ccc(O)cc1 [PARABEN] |  | 10.5
